Legend:
Test in all cases: KAT chemical proteomics
[1] = target: PAK4 (Homo sapiens, UniProt O96013)
[2] = target: EPHA6 (Homo sapiens, UniProt Q9UF33)
[3] = test system: PHKA2
[4] = target: CLK3 (Homo sapiens, UniProt P49761)
[5] = test system: GPR108
[6] = test system: PRKAG1
[7] = target: PHKG2 (Homo sapiens, UniProt P15735)
[8] = target: CHEK1 (Homo sapiens, UniProt O14757)
[9] = target: MET (Homo sapiens, UniProt P08581)
[10] = target: TGFBR2 (Homo sapiens, UniProt P37173)
[11] = target: ADCK5 (Homo sapiens, UniProt Q3MIX3)
[12] = test system: PRKAG3
[13] = target: DYRK1A (Homo sapiens, UniProt Q13627)
[14] = target: RPS6KA1 (Homo sapiens, UniProt Q15418)
[15] = target: MAPKAPK5 (Homo sapiens, UniProt Q8IW41)
[16] = target: ROCK2 (Homo sapiens, UniProt O75116)
[17] = target: GSK3A (Homo sapiens, UniProt P49840)
[18] = target: FER (Homo sapiens, UniProt P16591)
[19] = target: ATM (Homo sapiens, UniProt Q13315)
[20] = target: CSNK2A2 (Homo sapiens, UniProt P19784)
[21] = target: BMPR2 (Homo sapiens, UniProt Q13873)
[22] = target: TK1 (Homo sapiens, UniProt P04183)
[23] = target: DCAKD (Homo sapiens, UniProt Q8WVC6)
[24] = target: PRKD3 (Homo sapiens, UniProt O94806)
[25] = target: JAK3 (Homo sapiens, UniProt P52333)
[26] = target: AXL (Homo sapiens, UniProt P30530)
[27] = target: CDK12 (Homo sapiens, UniProt Q9NYV4)
[28] = target: CDK7 (Homo sapiens, UniProt P50613)
[29] = target: PIM1 (Homo sapiens, UniProt P11309)
[30] = target: DDR1 (Homo sapiens, UniProt Q08345)
[31] = target: ADPGK (Homo sapiens, UniProt Q9BRR6)
[32] = target: CDK17 (Homo sapiens, UniProt Q00537)
[33] = target: NEK9 (Homo sapiens, UniProt Q8TD19)
[34] = target: CAMK1D (Homo sapiens, UniProt Q8IU85)
[35] = target: GSK3B (Homo sapiens, UniProt P49841)
[36] = target: STK3 (Homo sapiens, UniProt Q13188)
[37] = target: CAMKK2 (Homo sapiens, UniProt Q96RR4)
[38] = target: MAP3K3 (Homo sapiens, UniProt Q99759)
[39] = target: MYLK (Homo sapiens, UniProt Q15746)
[40] = target: KHK (Homo sapiens, UniProt P50053)
[41] = target: DTYMK (Homo sapiens, UniProt P23919)

The chains behind the UniProt entries cited, without tags or fusion partners. Residues count along the entry.
UniProt Q9UF33, 23-1036 limits assumed: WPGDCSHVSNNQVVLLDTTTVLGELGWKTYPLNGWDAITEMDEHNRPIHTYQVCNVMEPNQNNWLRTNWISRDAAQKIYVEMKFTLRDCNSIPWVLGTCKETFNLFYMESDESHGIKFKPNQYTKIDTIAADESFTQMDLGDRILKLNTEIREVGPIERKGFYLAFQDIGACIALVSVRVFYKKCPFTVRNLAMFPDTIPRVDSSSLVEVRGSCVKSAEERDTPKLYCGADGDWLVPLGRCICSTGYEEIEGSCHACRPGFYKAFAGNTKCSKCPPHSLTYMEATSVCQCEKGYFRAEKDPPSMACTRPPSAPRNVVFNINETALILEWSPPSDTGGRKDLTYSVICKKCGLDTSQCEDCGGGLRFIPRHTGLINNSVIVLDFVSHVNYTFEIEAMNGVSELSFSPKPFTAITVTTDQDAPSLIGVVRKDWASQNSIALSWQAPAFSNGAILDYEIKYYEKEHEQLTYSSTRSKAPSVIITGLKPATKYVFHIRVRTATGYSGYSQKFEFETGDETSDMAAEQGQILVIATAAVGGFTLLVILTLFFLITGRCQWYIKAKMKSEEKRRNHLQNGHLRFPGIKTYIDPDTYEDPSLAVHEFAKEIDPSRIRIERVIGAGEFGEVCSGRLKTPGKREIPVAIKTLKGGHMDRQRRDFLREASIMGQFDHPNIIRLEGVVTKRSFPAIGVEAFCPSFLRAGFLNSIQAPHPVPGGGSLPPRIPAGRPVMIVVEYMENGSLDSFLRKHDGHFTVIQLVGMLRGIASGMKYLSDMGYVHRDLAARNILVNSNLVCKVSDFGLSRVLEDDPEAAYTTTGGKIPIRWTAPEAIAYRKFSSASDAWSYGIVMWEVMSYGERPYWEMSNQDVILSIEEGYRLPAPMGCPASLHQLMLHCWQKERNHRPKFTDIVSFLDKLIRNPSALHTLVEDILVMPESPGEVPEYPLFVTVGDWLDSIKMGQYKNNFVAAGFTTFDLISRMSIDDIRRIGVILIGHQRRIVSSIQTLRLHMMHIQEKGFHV
UniProt O14757, whole entry: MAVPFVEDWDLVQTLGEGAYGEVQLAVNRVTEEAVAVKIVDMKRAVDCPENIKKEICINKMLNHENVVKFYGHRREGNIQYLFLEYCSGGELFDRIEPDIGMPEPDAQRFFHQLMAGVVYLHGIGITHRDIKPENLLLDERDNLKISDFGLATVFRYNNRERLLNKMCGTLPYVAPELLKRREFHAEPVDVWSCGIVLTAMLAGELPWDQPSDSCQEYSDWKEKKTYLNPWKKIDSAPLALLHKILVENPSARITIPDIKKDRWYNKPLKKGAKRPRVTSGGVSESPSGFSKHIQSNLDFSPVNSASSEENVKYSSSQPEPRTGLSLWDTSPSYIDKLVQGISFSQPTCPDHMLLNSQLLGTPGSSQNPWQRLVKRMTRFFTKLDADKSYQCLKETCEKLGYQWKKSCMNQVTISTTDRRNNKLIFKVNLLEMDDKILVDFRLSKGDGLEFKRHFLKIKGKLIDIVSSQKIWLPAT
UniProt P08581, 25-1390 limits assumed: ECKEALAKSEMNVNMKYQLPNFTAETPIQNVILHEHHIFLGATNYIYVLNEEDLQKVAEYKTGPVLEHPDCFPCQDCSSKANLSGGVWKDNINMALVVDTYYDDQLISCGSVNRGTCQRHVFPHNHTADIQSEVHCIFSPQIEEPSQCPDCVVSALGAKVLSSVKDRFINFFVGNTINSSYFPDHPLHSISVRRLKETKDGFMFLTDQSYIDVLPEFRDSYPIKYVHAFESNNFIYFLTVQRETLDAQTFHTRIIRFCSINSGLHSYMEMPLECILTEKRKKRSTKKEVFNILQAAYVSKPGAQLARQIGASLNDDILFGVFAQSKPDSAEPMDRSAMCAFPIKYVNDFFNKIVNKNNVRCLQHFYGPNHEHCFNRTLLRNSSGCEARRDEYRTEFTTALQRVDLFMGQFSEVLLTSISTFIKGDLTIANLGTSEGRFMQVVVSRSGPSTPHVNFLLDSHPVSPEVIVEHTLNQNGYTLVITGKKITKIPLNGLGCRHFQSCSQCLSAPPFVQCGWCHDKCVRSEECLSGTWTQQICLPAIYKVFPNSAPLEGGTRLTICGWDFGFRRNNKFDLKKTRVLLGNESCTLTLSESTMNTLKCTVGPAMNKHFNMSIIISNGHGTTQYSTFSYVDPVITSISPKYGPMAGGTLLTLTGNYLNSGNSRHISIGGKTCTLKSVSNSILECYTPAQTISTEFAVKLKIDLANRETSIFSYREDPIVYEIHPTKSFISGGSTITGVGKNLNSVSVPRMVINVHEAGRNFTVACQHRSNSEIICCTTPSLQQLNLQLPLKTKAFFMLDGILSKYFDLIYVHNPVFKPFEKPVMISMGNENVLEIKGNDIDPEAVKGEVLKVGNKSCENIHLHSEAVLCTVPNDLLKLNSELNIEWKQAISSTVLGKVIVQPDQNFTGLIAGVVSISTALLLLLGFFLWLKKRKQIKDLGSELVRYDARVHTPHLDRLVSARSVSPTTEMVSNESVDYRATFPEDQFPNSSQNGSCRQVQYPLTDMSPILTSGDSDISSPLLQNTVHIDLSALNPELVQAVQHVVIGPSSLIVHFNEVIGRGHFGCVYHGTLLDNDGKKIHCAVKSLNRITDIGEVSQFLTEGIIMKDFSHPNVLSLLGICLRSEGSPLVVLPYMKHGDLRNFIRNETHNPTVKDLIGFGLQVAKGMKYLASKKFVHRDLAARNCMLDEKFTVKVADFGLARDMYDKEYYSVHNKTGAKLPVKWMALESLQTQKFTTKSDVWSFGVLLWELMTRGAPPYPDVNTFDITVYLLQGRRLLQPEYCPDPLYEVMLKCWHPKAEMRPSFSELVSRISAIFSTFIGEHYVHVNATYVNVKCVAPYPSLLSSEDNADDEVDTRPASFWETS
UniProt Q3MIX3, whole entry: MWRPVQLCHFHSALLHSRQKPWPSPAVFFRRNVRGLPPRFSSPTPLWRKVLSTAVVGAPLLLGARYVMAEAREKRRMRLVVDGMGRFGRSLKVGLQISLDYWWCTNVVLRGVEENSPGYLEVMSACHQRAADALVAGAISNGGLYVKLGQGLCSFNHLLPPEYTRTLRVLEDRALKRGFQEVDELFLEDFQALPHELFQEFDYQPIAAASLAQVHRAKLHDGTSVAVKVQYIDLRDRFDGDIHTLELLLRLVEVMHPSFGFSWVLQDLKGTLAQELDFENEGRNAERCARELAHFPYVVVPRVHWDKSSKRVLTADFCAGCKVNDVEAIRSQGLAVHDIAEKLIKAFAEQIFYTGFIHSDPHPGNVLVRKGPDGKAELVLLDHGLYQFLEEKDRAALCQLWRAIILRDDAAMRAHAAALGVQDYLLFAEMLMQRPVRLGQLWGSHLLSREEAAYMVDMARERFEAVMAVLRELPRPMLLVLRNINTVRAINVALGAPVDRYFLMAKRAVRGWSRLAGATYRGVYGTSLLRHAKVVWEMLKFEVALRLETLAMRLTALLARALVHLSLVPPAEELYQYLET
UniProt P19784, whole entry: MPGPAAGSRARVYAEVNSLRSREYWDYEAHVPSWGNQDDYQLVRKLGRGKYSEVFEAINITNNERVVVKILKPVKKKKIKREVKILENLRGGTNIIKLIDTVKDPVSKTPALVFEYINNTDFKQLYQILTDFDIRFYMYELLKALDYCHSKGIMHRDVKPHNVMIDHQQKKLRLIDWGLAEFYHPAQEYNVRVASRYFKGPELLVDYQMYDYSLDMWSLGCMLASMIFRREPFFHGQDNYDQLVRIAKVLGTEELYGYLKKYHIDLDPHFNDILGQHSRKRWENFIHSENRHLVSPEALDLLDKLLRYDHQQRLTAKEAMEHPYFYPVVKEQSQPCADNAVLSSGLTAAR
UniProt Q13873, 27-1038 limits assumed: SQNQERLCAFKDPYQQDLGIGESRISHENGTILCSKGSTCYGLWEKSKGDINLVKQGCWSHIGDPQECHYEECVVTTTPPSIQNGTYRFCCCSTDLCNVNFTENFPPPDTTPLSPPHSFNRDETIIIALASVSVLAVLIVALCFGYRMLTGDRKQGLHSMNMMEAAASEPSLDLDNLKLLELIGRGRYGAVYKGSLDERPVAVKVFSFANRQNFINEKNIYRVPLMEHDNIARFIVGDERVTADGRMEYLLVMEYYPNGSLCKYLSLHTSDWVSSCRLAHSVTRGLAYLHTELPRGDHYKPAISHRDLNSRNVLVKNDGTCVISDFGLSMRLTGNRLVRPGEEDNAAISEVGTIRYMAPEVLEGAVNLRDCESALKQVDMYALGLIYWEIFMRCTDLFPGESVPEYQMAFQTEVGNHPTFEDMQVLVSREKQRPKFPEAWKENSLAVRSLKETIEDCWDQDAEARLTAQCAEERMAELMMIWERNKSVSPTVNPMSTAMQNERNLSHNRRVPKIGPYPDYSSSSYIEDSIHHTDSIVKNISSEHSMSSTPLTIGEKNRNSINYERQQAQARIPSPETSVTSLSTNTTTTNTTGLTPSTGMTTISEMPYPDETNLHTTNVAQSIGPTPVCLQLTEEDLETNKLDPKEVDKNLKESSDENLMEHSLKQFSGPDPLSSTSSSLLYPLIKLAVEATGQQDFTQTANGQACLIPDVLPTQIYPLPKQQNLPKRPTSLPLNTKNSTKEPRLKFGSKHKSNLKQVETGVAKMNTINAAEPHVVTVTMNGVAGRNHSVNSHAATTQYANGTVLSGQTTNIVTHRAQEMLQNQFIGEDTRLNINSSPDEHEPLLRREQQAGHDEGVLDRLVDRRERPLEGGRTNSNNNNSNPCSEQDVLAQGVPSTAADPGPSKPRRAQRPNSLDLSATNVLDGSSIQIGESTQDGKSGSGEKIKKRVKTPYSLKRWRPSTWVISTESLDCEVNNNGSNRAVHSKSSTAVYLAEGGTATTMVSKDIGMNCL
UniProt P04183, whole entry: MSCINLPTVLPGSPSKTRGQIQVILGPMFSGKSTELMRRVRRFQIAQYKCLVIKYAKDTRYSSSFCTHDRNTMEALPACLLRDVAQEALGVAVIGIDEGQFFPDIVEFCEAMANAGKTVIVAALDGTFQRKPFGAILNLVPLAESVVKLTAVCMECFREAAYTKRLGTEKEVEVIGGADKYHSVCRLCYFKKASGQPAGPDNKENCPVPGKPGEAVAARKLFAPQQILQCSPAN
UniProt P50613, whole entry: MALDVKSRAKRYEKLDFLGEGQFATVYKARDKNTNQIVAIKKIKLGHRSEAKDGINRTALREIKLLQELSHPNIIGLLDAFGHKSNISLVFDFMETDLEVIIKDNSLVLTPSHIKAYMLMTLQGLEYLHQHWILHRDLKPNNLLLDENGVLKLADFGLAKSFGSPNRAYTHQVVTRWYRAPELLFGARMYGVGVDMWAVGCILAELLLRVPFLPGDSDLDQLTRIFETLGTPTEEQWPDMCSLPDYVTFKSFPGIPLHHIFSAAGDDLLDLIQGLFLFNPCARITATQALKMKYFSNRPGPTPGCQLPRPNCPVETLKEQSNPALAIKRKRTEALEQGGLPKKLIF
UniProt P11309, whole entry: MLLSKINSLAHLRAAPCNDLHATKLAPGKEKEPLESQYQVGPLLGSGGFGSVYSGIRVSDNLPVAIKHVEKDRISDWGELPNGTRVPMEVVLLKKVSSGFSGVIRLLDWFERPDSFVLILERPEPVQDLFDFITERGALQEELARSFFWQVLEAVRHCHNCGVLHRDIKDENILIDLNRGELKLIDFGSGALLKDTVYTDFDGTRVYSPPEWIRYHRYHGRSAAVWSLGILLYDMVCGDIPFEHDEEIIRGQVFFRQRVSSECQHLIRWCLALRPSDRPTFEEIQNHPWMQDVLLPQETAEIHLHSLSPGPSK
UniProt Q00537, whole entry: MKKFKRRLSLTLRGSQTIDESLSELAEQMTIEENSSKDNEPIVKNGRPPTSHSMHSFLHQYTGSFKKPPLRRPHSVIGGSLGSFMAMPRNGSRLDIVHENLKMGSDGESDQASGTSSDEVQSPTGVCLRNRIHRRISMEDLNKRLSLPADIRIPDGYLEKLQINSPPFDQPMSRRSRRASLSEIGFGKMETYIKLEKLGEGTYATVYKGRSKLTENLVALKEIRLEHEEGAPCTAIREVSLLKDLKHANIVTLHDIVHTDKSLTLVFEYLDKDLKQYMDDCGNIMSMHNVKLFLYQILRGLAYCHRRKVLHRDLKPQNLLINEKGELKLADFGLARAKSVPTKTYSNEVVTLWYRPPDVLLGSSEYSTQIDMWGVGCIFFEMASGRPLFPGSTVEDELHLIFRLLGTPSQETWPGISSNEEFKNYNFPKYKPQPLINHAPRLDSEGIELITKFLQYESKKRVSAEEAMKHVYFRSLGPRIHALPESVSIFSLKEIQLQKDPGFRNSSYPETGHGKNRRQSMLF
UniProt Q8IU85, whole entry: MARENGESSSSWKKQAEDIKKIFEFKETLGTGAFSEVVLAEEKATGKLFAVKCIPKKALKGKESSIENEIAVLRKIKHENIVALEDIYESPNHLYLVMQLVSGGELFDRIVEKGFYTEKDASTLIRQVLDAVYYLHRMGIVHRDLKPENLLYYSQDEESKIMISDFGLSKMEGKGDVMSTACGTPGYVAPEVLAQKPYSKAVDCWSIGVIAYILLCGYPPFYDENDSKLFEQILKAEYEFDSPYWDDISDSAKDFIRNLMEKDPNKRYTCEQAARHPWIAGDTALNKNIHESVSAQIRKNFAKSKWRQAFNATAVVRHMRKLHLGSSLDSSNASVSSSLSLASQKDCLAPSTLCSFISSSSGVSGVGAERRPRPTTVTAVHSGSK

In the case of `Cc1nc(C(F)(F)F)c2c(C(N)=O)c(N)n(-c3c(C)ccc(O)c3C)c2n1` (single isomer, unassigned), the RB50 [1] is reported as >50 µM, the RB50 [2] is reported as >50 µM and the RB50 [3] is reported as >50 µM. For the same compound, the RB50 [4] was >50 µM, the RB50 [5] was >50 µM and the RB50 [6] was >50 µM. For the same compound, the RB50 [7] was >50 µM, the RB50 [8] was >50 µM and the RB50 [9] was >50 µM. The RB50 [10] was >50 µM, the RB50 [11] was >50 µM and the RB50 [12] was >50 µM. The RB50 [13] was 433 nM, the RB50 [14] was >50 µM and the RB50 [15] was >50 µM. For the same compound, the RB50 [16] was >50 µM, the RB50 [17] was >50 µM and the RB50 [18] was >50 µM. For the same compound, the RB50 [19] was >50 µM, the RB50 [20] was >50 µM and the RB50 [21] was >50 µM. The RB50 [22] was >50 µM, the RB50 [23] was >50 µM and the RB50 [24] was >50 µM. The RB50 [25] was >50 µM, the RB50 [26] was >50 µM and the RB50 [27] was >50 µM. The RB50 [28] was >50 µM, the RB50 [29] was >50 µM and the RB50 [30] was 364 nM. The RB50 [31] was >50 µM, the RB50 [32] was >50 µM and the RB50 [33] was >50 µM. The RB50 [34] was >50 µM, the RB50 [35] was >50 µM and the RB50 [36] was >50 µM. For the same compound, the RB50 [37] was >50 µM, the RB50 [38] was >50 µM and the RB50 [39] was >50 µM. The RB50 [40] was >50 µM and the RB50 [41] was >50 µM.

— patent US20260384438A1, “PYRROLOPYRIMIDINE CARBOXAMIDES” (published 2026)
